Measured values reported in ChEMBL document CHEMBL5356952, “Design, synthesis, and biological evaluation of deuterated indolepropionic acid derivatives as novel long-acting pan PPARα/γ/δ agonists” (Bioorg Med Chem, 2023).
Active and inactive are the calls of the source.

What was measured:
Assay type in all cases: functional, organism-based
Mus musculus [1] = assay: Anti-NASH activity in HFD/CCl4-induced nonalcoholic steatohepatitis C57BL/6 mouse assessed as reduction in balloon like degeneration at 10 to 20 mg/kg, po administered once daily for 4 weeks; conditions: dose 10-20 mg/kg
Mus musculus [2] = assay: Downregulation of SCD1 gene expression in db/db C57BL/6 mouse at 20 mg/kg, po administered once daily for 30 days by qRT-PCR analysis; conditions: time 30.0 day
Mus musculus [3] = assay: Downregulation of Apo-CIII gene expression in db/db C57BL/6 mouse at 20 mg/kg, po administered once daily for 30 days by qRT-PCR analysis; conditions: time 30.0 day
Mus musculus [4] = assay: Hypolipidemic activity in db/db C57BL/6 mouse assessed as reduction in liver NEFA content at 20 mg/kg, po administered once daily for 30 days; conditions: time 30.0 day
Mus musculus [5] = assay: Hypolipidemic activity in db/db C57BL/6 mouse assessed as reduction in liver TG content at 20 mg/kg, po administered once daily for 30 days; conditions: time 30.0 day
Mus musculus [6] = assay: Upregulation of ND1 gene expression in db/db C57BL/6 mouse at 20 mg/kg, po administered once daily for 30 days by qRT-PCR analysis; conditions: time 30.0 day
Mus musculus [7] = assay: Upregulation of SOD2 gene expression in db/db C57BL/6 mouse at 20 mg/kg, po administered once daily for 30 days by qRT-PCR analysis; conditions: time 30.0 day
Mus musculus [8] = assay: Upregulation of Apo-CII gene expression in db/db C57BL/6 mouse at 20 mg/kg, po administered once daily for 30 days by qRT-PCR analysis; conditions: time 30.0 day
Mus musculus [9] = assay: Upregulation of catalase gene expression in db/db C57BL/6 mouse at 20 mg/kg, po administered once daily for 30 days by qRT-PCR analysis; conditions: time 30.0 day
Mus musculus [10] = assay: Hypolipidemic activity in db/db C57BL/6 mouse assessed as improvement in pathological features at 20 mg/kg, po administered once daily for 30 days; conditions: time 30.0 day
Mus musculus [11] = assay: Anti-NASH activity in HFD/CCl4-induced nonalcoholic steatohepatitis C57BL/6 mouse assessed as reduction in inflammatory cell infiltration at 10 to 20 mg/kg, po administered once daily for 4 weeks; conditions: dose 10-20 mg/kg
Mus musculus [12] = assay: Hypolipidemic activity in db/db C57BL/6 mouse assessed as reduction in plasma AST level at 20 mg/kg, po administered once daily for 30 days; conditions: time 30.0 day
Mus musculus [13] = assay: Hypolipidemic activity in db/db C57BL/6 mouse assessed as improvement in pathological features at 20 mg/kg, po administered once daily for 30 days by HE staining based assay; conditions: time 30.0 day
Mus musculus [14] = assay: Downregulation of FAS gene expression in db/db C57BL/6 mouse at 20 mg/kg, po administered once daily for 30 days by qRT-PCR analysis; conditions: time 30.0 day
Mus musculus [15] = assay: Downregulation of SREBP-1c gene expression in db/db C57BL/6 mouse at 20 mg/kg, po administered once daily for 30 days by qRT-PCR analysis; conditions: time 30.0 day
Mus musculus [16] = assay: Anti-NASH activity in po dosed HFD/CCl4-induced nonalcoholic steatohepatitis C57BL/6 mouse assessed as reduction in number of fat vacuoles administered once daily for 4 weeks; conditions: dose 10-20 mg/kg
Mus musculus [17] = assay: Anti-NASH activity in HFD/CCl4-induced nonalcoholic steatohepatitis C57BL/6 mouse assessed as reduction in hepatocyte steatosis at 10 to 20 mg/kg, po administered once daily for 4 weeks; conditions: dose 10-20 mg/kg
Mus musculus [18] = assay: Upregulation of SOD1 gene expression in db/db C57BL/6 mouse at 20 mg/kg, po administered once daily for 30 days by qRT-PCR analysis; conditions: time 30.0 day
Mus musculus [19] = assay: Upregulation of CPT1alpha gene expression in db/db C57BL/6 mouse at 20 mg/kg, po administered once daily for 30 days by qRT-PCR analysis; conditions: time 30.0 day
Mus musculus [20] = assay: Anti-NASH activity in HFD/CCl4-induced nonalcoholic steatohepatitis C57BL/6 mouse assessed as reduction in liver TC level at 10 to 20 mg/kg, po administered once daily for 4 weeks; conditions: dose 10-20 mg/kg
Mus musculus [21] = assay: Anti-NASH activity in HFD/CCl4-induced nonalcoholic steatohepatitis C57BL/6 mouse assessed as reduction in liver TG level at 10 to 20 mg/kg, po administered once daily for 4 weeks; conditions: dose 10-20 mg/kg
Mus musculus [22] = assay: Hypolipidemic activity in db/db C57BL/6 mouse assessed as reduction in plasma total cholesterol content at 20 mg/kg, po administered once daily for 30 days; conditions: time 30.0 day
Mus musculus [23] = assay: Upregulation of GPx1 gene expression in db/db C57BL/6 mouse at 20 mg/kg, po administered once daily for 30 days by qRT-PCR analysis; conditions: time 30.0 day
Mus musculus [24] = assay: Hypolipidemic activity in db/db C57BL/6 mouse assessed as reduction in plasma ALT level at 20 mg/kg, po administered once daily for 30 days; conditions: time 30.0 day
Mus musculus [25] = assay: Hypoglycemic activity in ob/ob C57BL/6 mouse assessed as reduction in glucose AUC at 20 mg/kg, po administered once daily for 15 days followed by glucose challenge for 30 mins and measured upto 60 mins post last dose by OGTT; conditions: time 15.0 day
Mus musculus [26] = assay: Upregulation of LCAD gene expression in db/db C57BL/6 mouse at 20 mg/kg, po administered once daily for 30 days by qRT-PCR analysis; conditions: time 30.0 day
Mus musculus [27] = assay: Downregulation of ACC1 gene expression in db/db C57BL/6 mouse at 20 mg/kg, po administered once daily for 30 days by qRT-PCR analysis; conditions: time 30.0 day
Mus musculus [28] = assay: Hypolipidemic activity in db/db C57BL/6 mouse assessed as reduction in plasma TG level at 20 mg/kg, po administered once daily for 30 days; conditions: time 30.0 day
Mus musculus [29] = assay: Anti-NASH activity in HFD/CCl4-induced nonalcoholic steatohepatitis C57BL/6 mouse assessed as reduction in area of liver fibrosis at 10 to 20 mg/kg, po administered once daily for 4 weeks by masson staining based assay; conditions: dose 10-20 mg/kg
Mus musculus [30] = assay: Upregulation of ATGL gene expression in db/db C57BL/6 mouse at 20 mg/kg, po administered once daily for 30 days by qRT-PCR analysis; conditions: time 30.0 day
Mus musculus [31] = assay: Anti-NASH activity in HFD/CCl4-induced nonalcoholic steatohepatitis C57BL/6 mouse assessed as improvement in degree of liver fibrosis at 10 to 20 mg/kg, po administered once daily for 4 weeks by masson staining based assay; conditions: dose 10-20 mg/kg
Mus musculus [32] = assay: Hypolipidemic activity in db/db C57BL/6 mouse assessed as upregulation of UCP1 expression at 20 mg/kg, po administered once daily for 30 days by immunohistochemistry analysis; conditions: time 30.0 day
Mus musculus [33] = assay: Downregulation of ANGPTL3 gene expression in db/db C57BL/6 mouse at 20 mg/kg, po administered once daily for 30 days by qRT-PCR analysis; conditions: time 30.0 day
Mus musculus [34] = assay: Hypolipidemic activity in db/db C57BL/6 mouse assessed as reduction in liver TC content at 20 mg/kg, po administered once daily for 30 days; conditions: time 30.0 day

Measured: Activity

COc1ccc(S(=O)(=O)n2cc(CCC(=O)O)c3cc(OC)ccc32)cc1 [INDEGLITAZAR]
active: Mus musculus [1] | Mus musculus [2] | Mus musculus [3] | Mus musculus [4] | Mus musculus [5] | Mus musculus [6] | Mus musculus [7] | Mus musculus [8] | Mus musculus [9] | Mus musculus [10] | Mus musculus [11] | Mus musculus [12] | Mus musculus [13] | Mus musculus [14] | Mus musculus [15] | Mus musculus [16] | Mus musculus [17] | Mus musculus [18] | Mus musculus [19] | Mus musculus [20] | Mus musculus [21] | Mus musculus [22] | Mus musculus [23] | Mus musculus [24] | Mus musculus [25] | Mus musculus [26] | Mus musculus [27] | Mus musculus [28] | Mus musculus [29] | Mus musculus [30] | Mus musculus [31] | Mus musculus [32] | Mus musculus [33] | Mus musculus [34]
